Test results: US20210017295A1, “BISPECIFIC BINDING AGENTS AND USES THEREOF” (MEMORIAL SLOAN KETTERING CANCER CENTER, priority 2018, published 2021)

Test system: s.c. HER2(+) BT-474 tumors
Assay type: in vivo
Conditions: BT-474 216 mm^3; PRIT, 55.5 MBq (~300 pmol); 24 h p.i.; single mouse

`Nc1ccc(CC2CN(CC(=O)[O-])CCN(CC(=O)[O-])CCN(CC(=O)[O-])CCN2CC(=O)[O-])cc1.[177Lu+3]` (stereo not shown) [^177Lu-DOTA-Bn] was tested, and the “activity concentration in tumor, imaged mouse” value was 6.06 % IA/g.
